In PubChem BioAssay AID740 (SRMLSC, 2007):
This is a selection; strong and weak results do not stand in their true shares. The source made the active and inactive calls. Cut-off read from the data, not from the text of the source: active = inhibition above about 25%; inactive = the rest.

Test: unspecified inhibition readout at 50 µM (AID 740)
Conditions: unspecified screen, active compounds read high

SMILES | inhibition
CCOP1(=S)c2c(C)nn(CCC#N)c2N=C(c2ccccc2F)N1C (stereo not given) | inactive: 0.69%
Clc1n[nH]nc1-c1nn[nH][15n]1 | inactive: 0.26%
O=P1(Nc2ccccn2)COc2ccccc2OC1 | inactive: 0.45%
Cc1ccc(OCC(=O)OC2CN3CCC2CC3)cc1 (stereo not given) | inactive: 0.44%
O=P1(Nc2ncccn2)COc2ccccc2OC1 | inactive: 1.07%
O=C(COc1ccccc1)OC1CN2CCC1CC2 (stereo not given) | inactive: 0.98%
COP1(=S)c2c(C)nn(CCC#N)c2N=C(c2ccc(F)cc2)N1C (stereo not given) | inactive: 0.32%
CCOP(=O)(Nc1ccccc1)OCC | inactive: 0.03%
Cc1c2non([O-])c-2c(C)[n+](=O)[n+]1[O-] | inactive: 0.07%
Oc1ccccc1CNc1ccccn1 | inactive: 1.06%
CC(=O)N1C2C3N(C(C)=O)C1C1N(C(C)=O)C(C(N1C(C)=O)N3C(C)=O)N2C(C)=O | inactive: 0.53%
O=[N+]([O-])c1cccc2n[nH]nc12 | inactive: 0.02%
O=P(Nc1nccs1)(c1ccccc1)c1ccccc1 | inactive: 0.58%
CCC(=O)N1C2C3N(C(=O)CC)C1C1N(C(=O)CC)C(C(N1C(=O)CC)N3C(=O)CC)N2C(=O)CC | inactive: 0.71%
COC(=O)c1cc2c(s1)N=C(c1ccccc1)N(C)P2(=O)N1CCOCC1 (stereo not given) | inactive: 0.37%
